From patent publication US5763625A, “Synthesis and use of β-lapachone analogs” (priority 1995, dated 1998)

Test system: human radioresistant melanoma (U1-Mel) cells
Experiment: Radiosensitization of X-irradiated confluence-arrested U1-Mel cells (survival)
Details: 10 μM
[1] = 4 Hr posttreatment after X-rays

Question: Which results are given for `CCC1(N)C(=O)OCc2c1cc1n(c2=O)Cc2cc3ccccc3nc2-1` (racemic) [20-Amino-20(RS)-Deoxy(RS)]?
Answer: Do [1]: 197 ± 8 cGy; Dq [1]: 210 ± 5 cGy; DER Values 1% (4 Hr posttreatment, 1% survival): 1.8 ± 0.3; DER Values 10% (4 Hr posttreatment, 10% survival): 1.4 ± 0.6
